## Binding of CDR-mutated scFvs to a peptide of the spike HR2 region

Values reported by Engelhart et al. 2022, doi:10.1038/s41597-022-01779-4 (FLAb copy).

The target is the same throughout: PDVDLGDISGINAS, from the HR2 region of SARS-CoV-2 spike.

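The parent was found by panning a naive human phage display library on the peptide. Variants in AAYL52 differ from the parent at up to three CDR positions; double and triple changes were sampled at random. The assay is AlphaSeq: two haploid yeast populations carry antibody and antigen on their surface. Mating (16 h, 30 °C) was followed by selection of diploids and sequencing of their barcodes. Read counts were normalised to the haploid input and turned into Kd by a linear fit to BCL2-family pairs of known affinity, for each replicate. There are three technical replicates.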

Parent scFv Ab-95: VH joined to VL by the linker GGGGSGGGGSGGGGS. Changes lie in the light chain CDRs alone.
VH: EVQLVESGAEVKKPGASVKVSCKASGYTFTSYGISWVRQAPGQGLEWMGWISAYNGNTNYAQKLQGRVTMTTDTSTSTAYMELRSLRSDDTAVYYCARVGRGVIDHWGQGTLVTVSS
VL: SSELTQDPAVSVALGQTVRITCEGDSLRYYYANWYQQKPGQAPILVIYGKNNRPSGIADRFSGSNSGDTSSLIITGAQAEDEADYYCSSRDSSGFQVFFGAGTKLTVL

Variants are written as CDR1, CDR2 and CDR3 of the light chain (limits as in the source). Parent: EGDSLRYYYAN, GKNNRPS, SSRDSSGFQVF.
Scale: log10 of Kd in nM, estimated from mating counts; low values are strong binders.
An entry "ND" has no value in the source: the pair was not observed among the diploids in that replicate. This suggests poor binding but is not conclusive.

| CDR-L1 | CDR-L2 | CDR-L3 | replicates, log10 nM | empty controls |
|---|---|---|---|---|
| EFDSLRYYYAN | GKNNRPS | SSRYSSGFQVR | 3.65 3.51 ND | 3 of 9 (3.51) |
| EGDSLRHYYAN | GVNNRPS | SSVDSSGFQVF | 2.52 2.65 2.27 | 3 of 9 (3.69) |
| EGDWDRYYYAN | GKNNRPS | SSRWSSGFQVF | 4.44 3.51 2.23 | 1 of 9 (4.78) |
| EGDSPWYYYTN | GKNNRPS | SSRDSSGFQVF | 2.59 2.99 2.93 | 3 of 9 (4.18) |
| EGDSLRYYYAN | GKNNRPS | SSEDHSGFQWF | 2.65 2.17 1.55 | 3 of 9 (4.20) |
| EGDSLCYYYAN | GKNNRPS | SSRDSSGTQVF | 2.51 2.18 2.42 | 2 of 9 (3.97) |
| EGDSCRSYYAN | GKNNRPS | SSRDSSGFQVF | ND ND ND | 2 of 9 (3.67) |
| EGDVLRYYYAN | GKNNRPS | SSRDFSGFQGF | 3.16 3.36 ND | 1 of 9 (3.51) |
| EGDSLRYYYAN | GKNNCPS | YSRDSSGWQVF | ND 4.47 ND | 7 of 9 (4.40) |
| EGDSLRYMYAN | RKNNRPQ | SSRDSSGFQVF | ND ND ND | 2 of 9 (4.19) |
| EGDSLRYYYQN | GKNNAPS | SSFDSSGFQVF | 4.00 ND ND | 4 of 9 (3.66) |
| EGDSWRYYYQN | GKNNRPS | SSMDSSGFQVF | ND ND ND | 3 of 9 (4.11) |
| EGDSLVYYYLN | GKNNRPS | VSRDSSGFQVF | ND ND ND | 3 of 9 (3.82) |
| EGDSLRYYYAN | GKNNVPS | SSRDSSGFQGL | 3.30 2.74 2.79 | 2 of 9 (3.31) |
| VGDSLRYYYAN | GKKNRPH | SSRDSSGFQVF | 3.08 ND 3.04 | 3 of 9 (4.22) |
| EWDSLRYYYAN | GKNNRDS | SSRDSSGFQVF | 3.93 ND 3.81 | 1 of 9 (4.75) |
| EGTSLRYYYAN | FKNNRPS | SSRDWSGFQVF | ND ND ND | 0 of 9 |
| EGDSLRYYYAN | CKNNRPS | SSRDSSTFQCF | ND ND ND | 2 of 9 (4.12) |
| KGISLRYYYAN | GKNNRPS | SMRDSSGFQVF | 4.02 3.00 3.13 | 3 of 9 (3.31) |
| EGDSLRYYYAN | GKNNRPS | SFRRSSGFQVF | 2.48 2.35 3.13 | 2 of 9 (3.33) |
| EGDSLRYYDAN | QKNNSPS | SSRDSSGFQVF | 2.35 2.91 3.25 | 3 of 9 (3.88) |
| EGDSLRPYFAN | GKNNRPS | SSRDSSQFQVF | 2.97 ND ND | 3 of 9 (4.50) |
| EGDWLRYYYMN | GKNNRPS | SSCDSSGFQVF | 3.51 3.92 ND | 2 of 9 (3.44) |
| EGDSLRYYYAN | EKNNRPS | SSGQSSGFQVF | 3.54 5.27 3.88 | 5 of 9 (3.75) |
| EGDSTRYYYAN | GKNNRPS | SSRDSSGFQVF | ND ND 3.06 | 3 of 9 (4.02) |
| EGDSLRYYYAN | GKNMWPS | SSRDISGFQVF | ND ND ND | 1 of 9 (3.81) |
| EGDSLRYYYAN | GMNNRPS | SYRWSSGFQVF | 2.96 3.56 2.77 | 3 of 9 (4.31) |
| EGDMLRYYYAN | GKNNRPS | SSRDISGFQVD | 4.08 ND ND | 1 of 9 (3.73) |
| EGDSLRYYYAN | GKNNRPS | SSRDSSGFVNY | 2.50 2.90 2.41 | 3 of 9 (3.92) |
| EGDSLRYYYAN | GKNNRPD | SSRDVSGEQVF | 2.84 2.28 2.23 | 4 of 9 (4.04) |
| EGDSLRDYYAN | GKNNRPS | SSGDFSGFQVF | 1.90 2.02 1.18 | 1 of 9 (3.62) |
| EEDSLRYYYAN | GKNNRPS | SSRDSSNFQVF | 4.46 5.04 ND | 2 of 9 (3.64) |
| EEDSRRYYYAN | GKNNRPS | SSRDSSDFQVF | 3.96 3.86 ND | 1 of 9 (2.95) |

Again, the first 4 entries without any signal:

CDR-L1,CDR-L2,CDR-L3,"replicates, log10 nM",empty controls
EGDSCRSYYAN,GKNNRPS,SSRDSSGFQVF,ND ND ND,2 of 9 (3.67)
EGDSLRYMYAN,RKNNRPQ,SSRDSSGFQVF,ND ND ND,2 of 9 (4.19)
EGDSWRYYYQN,GKNNRPS,SSMDSSGFQVF,ND ND ND,3 of 9 (4.11)
EGDSLVYYYLN,GKNNRPS,VSRDSSGFQVF,ND ND ND,3 of 9 (3.82)

Empty control strains, which show no peptide, gave a signal in 28% of pairings with library AAYL52; the median was 3.91 and 95% of these signals were weaker than 2.90. No background was subtracted. The control count says in how many pairings with the empty strains this scFv gave a signal, with their mean in brackets.
Parent in this assay: reference entry 2.31, copy in this library 2.25.